Laboratory results as given in PubChem BioAssay AID463190 (Sanford-Burnham Center for Chemical Genomics, 2010).
This is a selection; strong and weak results do not stand in their true shares. Calls of active or inactive are those of the source.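 The calls were made as follows: active = inhibition of at least 40%; inactive = the rest.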

experiment: growth inhibition of tim10-1 ts yeast – luminescence, uHTS, primary screen (AID 463190);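 also: mutant grown at 25 °C; 0% = DMSO wells with yeast and 100% = wells holding no yeast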; conditions: S. cerevisiae tim10-1 ts strain growth, BacTiter-Glo, 24 h; at 20 µM; hits give high values

| SMILES | inhibition |
| --- | --- |
| CCOC(=O)c1ccc(NP(C)(=O)Oc2ccccc2)cc1 (stereo not given) | inactive: 5.88% |
| COc1ccccc1OP(C)(=O)Nc1ccc(C)cc1 (stereo not given) | inactive: 10.6% |
| Cc1ccc(NP(C)(=O)Oc2ccccc2)c(C)c1 (stereo not given) | inactive: 13.4% |
| CC(C)(C)c1ccc(OP(C)(=O)Nc2ccc(SC(F)(F)F)cc2)cc1 (stereo not given) | active: 45.6% |
| Cc1cccc(C)c1OP(C)(N)=O (stereo not given) | inactive: -3% |
| O=[N+]([O-])c1cc([N+](=O)[O-])c(Nc2cccnc2)c([N+](=O)[O-])c1 | active: 55.8% |
| CCN(CC)CCCOC(=O)C(O)(c1ccccc1)c1ccccc1 | inactive: 5.55% |
| CP(=O)(Nc1cccc(Br)c1)Oc1ccccc1 (stereo not given) | inactive: 3% |
| Cc1cc(C)cc(OP(C)(=O)Nc2ccccn2)c1 (stereo not given) | inactive: 16.4% |
| Cc1ccc(C)c(NP(C)(=O)Oc2ccccc2)c1 (stereo not given) | inactive: 10.5% |
| Cc1cc(C)cc(OP(C)(=O)Nc2ccc(C)cc2C)c1 (stereo not given) | inactive: 6.86% |
| CCOC(=O)c1ccc(NP(C)(=O)Oc2cc(C)cc(C)c2)cc1 (stereo not given) | inactive: 25.7% |
| COc1ccccc1OP(C)(=O)Nc1cccc(Br)c1 (stereo not given) | inactive: 6.92% |
| CC1=NCCc2c1[nH]c1ccccc21.O=[N+]([O-])c1cc([N+](=O)[O-])c(O)c([N+](=O)[O-])c1 | inactive: 11.6% |
| O=C(O)c1cccc(Nc2c([N+](=O)[O-])cc([N+](=O)[O-])cc2[N+](=O)[O-])c1 | inactive: -2.21% |
| CP(=O)(Nc1ccc(SC(F)(F)F)cc1)Oc1ccccc1 (stereo not given) | inactive: 10.5% |
| CCCOc1ccc(NP(C)(=O)Oc2ccc(Cl)cc2)cc1 (stereo not given) | inactive: 38.3% |
| CN1CCCCC1COC(=O)C1(O)c2ccccc2CCc2ccccc21 (stereo not given) | inactive: 11.2% |
| COc1ccccc1OP(C)(=O)Nc1c(C)cccc1C (stereo not given) | inactive: 15% |
| O=[N+]([O-])c1cc([N+](=O)[O-])c(Nc2nnnn2CCO)c([N+](=O)[O-])c1 | inactive: -10.7% |
| CC1=C2N=C(C=C3N=C(C(C)=C4[N-][C@@](C)([C@@H]5N=C1[C@](C)(CCC(=O)NC[C@@H](C)OP(=O)([O-])O[C@H]1[C@@H](O)[C@@H](n6cnc7cc(C)c(C)cc76)O[C@@H]1CO)[C@H]5CC(N)=O)[C@@](C)(CC(N)=O)[C@@H]4CCC(N)=O)[C@@](C)(CC(N)=O)[C@@H]3CCC(N)=O)C(C)(C)[C@@H]2CCC(N)=O.[C-]#N.[Co+3] | inactive: 8.9% |
| CCOC(=O)C(CC)C1=NC(C)(C)Cc2ccccc21.O=[N+]([O-])c1cc([N+](=O)[O-])c(O)c([N+](=O)[O-])c1 (stereo not given) | inactive: 20.9% |
| Cc1nc2ccc3ccccc3c2s1.O=[N+]([O-])c1cc([N+](=O)[O-])c(O)c([N+](=O)[O-])c1 | inactive: 12.3% |
| O=[N+]([O-])c1cc([N+](=O)[O-])c(-c2cnn(-c3ccccc3)c2)c([N+](=O)[O-])c1 | inactive: -6.7% |
| O=[N+]([O-])c1cc([N+](=O)[O-])c(-n2nnc3ccccc32)c([N+](=O)[O-])c1 | inactive: 16% |
